The target in assay [1] is B*4402 (Homo sapiens, UniProt P01889, A223V/A65T/A93T/A95T/D201E/D98Y/E176V/E187L/E204Q/E69K/G107R/H137Y/K202T/L105A/L119I/N104T/N87E/Q56L/Q94N/R106L/R155S/R180D/S101N/S121R/S35A/S48T/T118I/V36M/W191S/Y140D/Y91S). As to the kind of experiment: B44 supertype peptide binding, B*4402. The conditions noted are these: read-out: B* 4402.
The test system of assay [2] is B44 supertype (B*1801, B*4001, B*4002, B*4402, B*4403, B*4501). As to the kind of experiment: B44 supertype cross-binding (degeneracy, alleles bound). The settings on record: number of the six B44 supertype alleles bound. Also on record: species or system human.
For assay [3], the target named is B*4501 (Homo sapiens, UniProt P01889, A329T/A65T/A93T/A95T/C349S/D138N/D201E/D98Y/E176V/E187L/E204Q/E69K/H137Y/K202T/L119W/N87E/Q56L/Q94N/R155S/R180D/S121R/S35A/S48T/V127L/V306I/V36M/W191S/Y140L/Y33H/Y91S). The assay can be described thus: B44 supertype peptide binding, B*4501. The conditions noted are these: read-out: B* 4501.
The target in assay [4] is B*4001(B60) (Homo sapiens, UniProt P01889, A65T/A93T/A95T/D138N/D98Y/E176V/E69K/N87E/Q56L/Q94N/R180L/S121R/S35A/S48T/T167S/V36M/W171L/Y33H/Y91S). As to the kind of experiment: B44 supertype peptide binding, B*4001. The conditions noted are these: read-out: B* 4001.
Assay [5] has as its target B*1801 (Homo sapiens, UniProt P01889, A329T/A93T/A95T/C349S/D201E/D54G/D98Y/E176V/E187T/E204Q/E69T/K202T/Q94N/R155S/R180L/S121R/V306I/Y140S/Y195H/Y33H/Y91S). As to the kind of experiment: B44 supertype peptide binding, B*1801. The settings on record: Table 29: MAGE2-derived B44 peptides.
The target of assay [6] is B*4002 (B61) (Homo sapiens, UniProt P01889, A65T/A93T/A95T/D138N/D201E/D98Y/E176V/E204Q/E69K/K202T/N87E/Q56L/Q94N/R180L/S48T/Y33H/Y91S). As to the kind of experiment: B44 supertype peptide binding, B*4002. The settings on record: Table 29: MAGE2-derived B44 peptides; read-out: B* 4002.
Assay [7] addresses B*4403 (Homo sapiens, UniProt P01889, A223V/A65T/A93T/A95T/D201E/D98Y/E176V/E187L/E204Q/E69K/G107R/H137Y/K202T/L105A/L119I/N104T/N87E/Q56L/Q94N/R106L/R155S/R180L/S101N/S121R/S35A/S48T/T118I/V36M/W191S/Y140D/Y91S). The assay can be described thus: B44 supertype peptide binding, B*4403. The settings on record: Table 29: MAGE2-derived B44 peptides; read-out: B* 4403.
Assay [8] concerns B44 supertype (B*1801, B*4001, B*4002, B*4402, B*4403, B*4501). As to the kind of experiment: B44 supertype cross-binding (degeneracy, number of alleles bound). Also on record: species or system human. The settings on record: Table 29: MAGE2-derived B44 peptides; number of the six B44 alleles bound.
[9] abbreviates: CEA-derived B44 peptides, binding affinity, unit inferred.
Where [10] appears, read: Table 29: MAGE2-derived B44 peptides.

The structures appear in SMILES notation. Where two headings read alike, the source gives them in different places. Bounds are passed on as bounds.

Consider `CC[C@H](C)[C@H](NC(=O)[C@H](CC(N)=O)NC(=O)[C@H](CO)NC(=O)[C@@H](NC(=O)[C@H](Cc1ccccc1)NC(=O)[C@H](CC(C)C)NC(=O)[C@H](CCC(=O)O)NC(=O)[C@@H](N)CCC(N)=O)[C@@H](C)CC)C(=O)O`, for which the IC50 in assay [1] (setting [9]) was 2.28 µM. In assay [2], the Degeneracy is on record as 1.
In the case of `CC[C@H](C)[C@H](N)C(=O)N[C@@H](CCC(=O)O)C(=O)N[C@@H](CO)C(=O)N[C@H](C(=O)N1CCC[C@H]1C(=O)N[C@@H](Cc1ccccc1)C(=O)N[C@@H](CC(N)=O)C(=O)N[C@H](C(=O)N[C@@H](C)C(=O)N[C@@H](CCC(=O)O)C(=O)NCC(=O)O)C(C)C)[C@@H](C)O` [compound 370], the Degeneracy in assay [2] was determined as 5.
On to `CC[C@H](C)[C@H](NC(=O)CNC(=O)[C@H](CS)NC(=O)[C@H](CCC(=O)O)NC(=O)[C@@H](N)Cc1ccc(O)cc1)C(=O)N[C@@H](CCC(N)=O)C(=O)N[C@@H](CC(N)=O)C(=O)N[C@@H](CCC(=O)O)C(=O)N[C@@H](CC(C)C)C(=O)O` [compound 371], for which the IC50 in assay [1] (setting [9]) is 0.452 µM; in assay [3] (setting [9]) it was 0.855 µM. The same compound gave a Degeneracy in assay [2] of 5.
The compound `CC[C@H](C)[C@H](NC(=O)CNC(=O)[C@H](CS)NC(=O)[C@H](CCC(=O)O)NC(=O)[C@@H](N)Cc1ccc(O)cc1)C(=O)N[C@@H](CCC(N)=O)C(=O)N[C@@H](CC(N)=O)C(=O)N[C@@H](CCC(=O)O)C(=O)N[C@@H](CC(C)C)C(=O)N[C@@H](CO)C(=O)N[C@H](C(=O)O)C(C)C` [compound 372] gave a Degeneracy in assay [2] of 5.
With `CSCC[C@H](N)C(=O)N[C@@H](CCC(=O)O)C(=O)N[C@@H](CO)C(=O)N1CCC[C@H]1C(=O)N[C@@H](CO)C(=O)N[C@@H](C)C(=O)N1CCC[C@H]1C(=O)N1CCC[C@H]1C(=O)N[C@@H](Cc1c[nH]cn1)C(=O)N[C@@H](CCCNC(=N)N)C(=O)N[C@@H](Cc1c[nH]c2ccccc12)C(=O)O` [compound 373], the figures for the IC50 in assay [4] (setting [9]) and in assay [3] (setting [9]) were 0.943 µM and 0.359 µM, respectively. In assay [2], the Degeneracy came to 4.
As for `CC(C)C[C@H](NC(=O)[C@H](CC(C)C)NC(=O)[C@@H](NC(=O)[C@H](CCC(=O)O)NC(=O)[C@H](CCCCN)NC(=O)CNC(=O)[C@H](CCC(=O)O)NC(=O)[C@H](C)N)C(C)C)C(=O)N[C@@H](CC(C)C)C(=O)N[C@H](C(=O)O)C(C)C` [compound 375], in assay [3] (setting [9]), the IC50 was determined as 0.994 µM. In assay [2], this compound showed a Degeneracy of 4.
As to `CC[C@H](C)[C@H](NC(=O)[C@H](CCC(=O)O)NC(=O)[C@@H](N)CCCNC(=N)N)C(=O)N[C@H](C(=O)N[C@@H](Cc1ccc(O)cc1)C(=O)N1CCC[C@H]1C(=O)N[C@@H](CC(N)=O)C(=O)N[C@@H](C)C(=O)N[C@@H](CO)C(=O)N[C@@H](CC(C)C)C(=O)N[C@@H](CC(C)C)C(=O)O)[C@@H](C)CC` [compound 378], the Degeneracy in assay [2] was 4.
As for `CC(C)[C@H](NC(=O)[C@@H]1CCCN1C(=O)[C@H](CC(N)=O)NC(=O)[C@H](CCC(N)=O)NC(=O)[C@@H](NC(=O)[C@H](CCC(=O)O)NC(=O)[C@@H](N)CS)[C@@H](C)O)C(=O)N[C@@H](CO)C(=O)N[C@@H](C)C(=O)O` [compound 379], the IC50 in assay [4] (setting [9]) was determined as 7.02 µM. Also, the Degeneracy in assay [2] turned out to be 4.
In the case of `CC[C@H](C)[C@H](NC(=O)[C@H](CC(N)=O)NC(=O)[C@@H]1CCCN1C(=O)[C@@H](NC(=O)[C@H](Cc1ccccc1)NC(=O)[C@H](CC(C)C)NC(=O)[C@H](CCC(=O)O)NC(=O)[C@@H](N)CCC(N)=O)[C@@H](C)CC)C(=O)N[C@H](C(=O)O)[C@@H](C)O` [compound 380], in assay [2], the Degeneracy is 4.
For the compound `CC(C)[C@H](NC(=O)[C@H](CCCNC(=N)N)NC(=O)[C@H](Cc1ccccc1)NC(=O)[C@H](CCC(N)=O)NC(=O)CNC(=O)[C@@H](NC(=O)[C@H](C)NC(=O)[C@H](CCC(=O)O)NC(=O)[C@H](CCC(=O)O)NC(=O)[C@@H](N)CC(N)=O)[C@@H](C)O)C(=O)N[C@@H](Cc1ccc(O)cc1)C(=O)O` [compound 383], the IC50 in assay [4] (setting [9]) came out at 3.25 µM; in assay [3] (setting [9]) it was 3.99 µM. The Degeneracy in assay [2] worked out at 3.
In the case of `CC[C@H](C)[C@H](NC(=O)[C@H](CC(N)=O)NC(=O)[C@@H]1CCCN1C(=O)[C@@H](NC(=O)[C@H](Cc1ccccc1)NC(=O)[C@H](CC(C)C)NC(=O)[C@H](CCC(=O)O)NC(=O)[C@@H](N)CCC(N)=O)[C@@H](C)CC)C(=O)O` [compound 387], the IC50 came to 5.82 µM in assay [4] (setting [9]), 1.34 µM in assay [1] (setting [9]) and 1.32 µM in assay [3] (setting [9]). The compound also came in with a Degeneracy in assay [2] of 3.
Turning to `CC[C@H](C)[C@H](NC(=O)[C@H](CCC(=O)O)NC(=O)[C@@H]1CCCN1)C(=O)N[C@@H](CCC(N)=O)C(=O)N[C@@H](CC(N)=O)C(=O)N[C@H](C(=O)N[C@H](C(=O)N[C@@H](Cc1ccc(O)cc1)C(=O)N[C@@H](CC(C)C)C(=O)N[C@@H](Cc1c[nH]c2ccccc12)C(=O)N[C@@H](Cc1c[nH]c2ccccc12)C(=O)O)[C@@H](C)O)[C@@H](C)O` [compound 389], the IC50 in assay [4] (setting [9]) was 0.749 µM; in assay [3] (setting [9]), 1.36 µM. Besides, the Degeneracy in assay [2] turned out to be 3.
Take `CC(C)C[C@H](NC(=O)[C@H](CCC(=O)O)NC(=O)[C@@H](N)CC(N)=O)C(=O)N[C@@H](CO)C(=O)N[C@H](C(=O)N[C@@H](CC(=O)O)C(=O)N[C@@H](Cc1c[nH]cn1)C(=O)N[C@@H](CO)C(=O)N[C@@H](CC(=O)O)C(=O)N1CCC[C@H]1C(=O)N[C@H](C(=O)O)C(C)C)C(C)C` [compound 391]: the Degeneracy in assay [2] is listed as 3.
As for `CC[C@H](C)[C@H](NC(=O)[C@H](Cc1ccccc1)NC(=O)[C@H](CC(C)C)NC(=O)[C@H](CCC(=O)O)NC(=O)[C@@H](N)CCC(N)=O)C(=O)N[C@@H](CO)C(=O)N[C@@H](CC(N)=O)C(=O)N[C@H](C(=O)N[C@H](C(=O)O)[C@@H](C)O)[C@@H](C)CC` [compound 392], the IC50 amounted to 6.57 µM in assay [4] (setting [9]) and 2.33 µM in assay [1] (setting [9]). This compound yielded a Degeneracy in assay [2] of 3.
Regarding `CC[C@H](C)[C@H](NC(=O)[C@H](CCC(N)=O)NC(=O)[C@H](CCCNC(=N)N)NC(=O)[C@H](CC(N)=O)NC(=O)CNC(=O)[C@H](CC(=O)O)NC(=O)[C@@H](NC(=O)[C@H](CCCNC(=N)N)NC(=O)[C@H](CCC(=O)O)NC(=O)CN)C(C)C)C(=O)O` [compound 394], the IC50 in assay [3] (setting [9]) worked out at 19.5 µM. The same compound gave a Degeneracy in assay [2] of 2.
Take `CC(C)[C@H](NC(=O)[C@H](CCCNC(=N)N)NC(=O)[C@H](Cc1ccccc1)NC(=O)[C@H](CCC(N)=O)NC(=O)CNC(=O)[C@@H](NC(=O)[C@H](C)NC(=O)[C@H](CCC(=O)O)NC(=O)[C@@H](N)CCC(=O)O)[C@@H](C)O)C(=O)N[C@@H](Cc1ccc(O)cc1)C(=O)O` [compound 397]: in assay [4] (setting [9]), the IC50 was > 10 µM. In assay [2], this compound came in with a Degeneracy of 2.
For `CC(C)C[C@H](NC(=O)CNC(=O)[C@H](CCC(=O)O)NC(=O)[C@H](CCC(=O)O)NC(=O)[C@@H]1CCCN1)C(=O)N[C@@H](CCC(=O)O)C(=O)N[C@@H](C)C(=O)N[C@@H](CCCNC(=N)N)C(=O)NCC(=O)N[C@@H](CCC(=O)O)C(=O)N[C@@H](C)C(=O)O` [compound 712], the IC50 is 15.2 µM in assay [5]; > 10 µM in assay [4] (setting [10]); 18.6 µM in assay [6]; > 10 µM in assay [1] (setting [10]); 0.95 µM in assay [7]; 3.19 µM in assay [3] (setting [10]). This compound gave a Degeneracy in assay [8] of 0.
For `NC(=O)CC[C@H](NC(=O)[C@H](CC(N)=O)NC(=O)[C@H](CO)NC(=O)[C@H](CO)NC(=O)CNC(=O)[C@H](CCC(=O)O)NC(=O)[C@@H](N)CC(=O)O)C(=O)N[C@@H](CCC(=O)O)C(=O)N[C@@H](CCC(=O)O)C(=O)N[C@@H](CCC(=O)O)C(=O)NCC(=O)O` [compound 714], the IC50 in assay [5] was 10.8 µM; in assay [4] (setting [10]) it was > 10 µM; in assay [6] it was > 10 µM; in assay [1] (setting [10]) it was > 10 µM; in assay [7] it was 2.12 µM; in assay [3] (setting [10]), > 10 µM. Also, in assay [8], the Degeneracy is listed as 0.

For the origin of these results see patent EP1903056A2, “HLA-A1, -A2 -A3, -A24, -B7, and -B44 tumor associated antigen peptides and compositions” (priority 2002, dated 2004).
